Experimental data published in PubChem BioAssay AID504734 (The Scripps Research Institute Molecular Screening Center, 2011).
This is a selection; strong and weak results do not stand in their true shares. Some results for these compounds are left out of this collection, so the calls shown say nothing about other tests. Activity calls are given as the source filed them.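 The calls were made as follows: active = inhibition above the mean over all tested compounds plus 3 SD (cut at about 21% in these data); inactive = the rest.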

Sequences of proteins named here, by UniProt entry; tags and fusion partners are left off.
UniProt Q9NR96, whole entry: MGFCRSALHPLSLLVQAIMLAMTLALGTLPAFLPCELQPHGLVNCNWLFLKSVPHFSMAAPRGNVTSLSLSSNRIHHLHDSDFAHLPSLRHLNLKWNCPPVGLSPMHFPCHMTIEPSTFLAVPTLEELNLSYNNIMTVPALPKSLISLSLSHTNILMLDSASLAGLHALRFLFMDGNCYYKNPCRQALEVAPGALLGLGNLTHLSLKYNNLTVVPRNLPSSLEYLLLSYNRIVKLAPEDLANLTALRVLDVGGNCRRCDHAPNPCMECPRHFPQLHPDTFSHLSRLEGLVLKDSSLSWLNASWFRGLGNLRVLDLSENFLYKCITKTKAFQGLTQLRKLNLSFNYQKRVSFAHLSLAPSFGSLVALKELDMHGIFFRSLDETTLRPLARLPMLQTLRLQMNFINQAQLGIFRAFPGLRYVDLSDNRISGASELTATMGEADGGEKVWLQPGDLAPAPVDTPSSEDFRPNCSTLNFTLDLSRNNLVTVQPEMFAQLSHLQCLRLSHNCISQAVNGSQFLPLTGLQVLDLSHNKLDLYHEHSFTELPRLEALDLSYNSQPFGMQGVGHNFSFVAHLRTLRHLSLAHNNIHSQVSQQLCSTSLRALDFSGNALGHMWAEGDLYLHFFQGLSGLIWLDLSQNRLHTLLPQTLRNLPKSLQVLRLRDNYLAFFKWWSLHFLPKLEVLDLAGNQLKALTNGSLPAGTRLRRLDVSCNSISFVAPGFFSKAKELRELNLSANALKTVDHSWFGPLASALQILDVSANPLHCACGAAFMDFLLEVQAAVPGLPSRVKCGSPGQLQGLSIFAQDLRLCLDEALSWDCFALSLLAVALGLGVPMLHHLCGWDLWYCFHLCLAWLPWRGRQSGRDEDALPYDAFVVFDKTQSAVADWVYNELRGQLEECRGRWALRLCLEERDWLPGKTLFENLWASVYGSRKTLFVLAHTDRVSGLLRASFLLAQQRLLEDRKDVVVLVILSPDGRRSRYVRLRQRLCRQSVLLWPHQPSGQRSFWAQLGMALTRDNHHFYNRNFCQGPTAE

These compounds were tested against Toll-like receptor 9 (Homo sapiens) + Myeloid differentiation primary response protein MyD88 (Homo sapiens) (UniProt Q9NR96+Q99836) (assay: inhibitors of TLR9-MyD88 association in cells, primary screen, cell-based, CHO, BLA complementation, fluorescence (AID 504734;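 also: 0% = DMSO only wells and 100% = clavulanate BLA inhibitor control wells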)). Conditions: CHO BLA complementation TLR9-MyD88, CCF4 FRET ratio; at 4.98 µM; stronger effect = higher value.

| Structure (SMILES) | inhibition |
| --- | --- |
| Cc1ccc(C(=O)NCC2(N3CCCCC3)CCCCC2)cc1 | inactive: -2.72% |
| CC(C)N1C(=O)CC2(CCN(CCOC(=O)C(O)(c3ccccc3)c3ccccc3)CC2)C1=O | inactive: -2.32% |
| CCN(CC)CC(C)C(C)OC(=O)C(O)(c1ccccc1)c1ccccc1 (stereo unspecified) | inactive: -14% |
| COc1cc(SC)ccc1C(=O)NCC1(N(C)C)CCCCC1 | inactive: 13.8% |
| CN1[C@@H]2CC[C@H]1CC(OC(=O)C(O)(c1ccccc1)c1ccccc1)C2 (stereo partly specified) | inactive: 0.11% |
| O=C(NCC1(N2CCCCC2)CCCCC1)c1cc([N+](=O)[O-])ccc1Cl | inactive: -5.17% |
| Cc1cc(C(=O)NCC2(N3CCCCC3)CCCCC2)ccc1[N+](=O)[O-] | inactive: 1.15% |
| CCN1CCCC(OC(=O)C2(O)c3ccccc3C=Cc3ccccc32)C1 (stereo unspecified) | inactive: -3.88% |
| O=C(NCC1(N2CCCCC2)CCCCC1)c1cccc(Br)c1 | inactive: -11.2% |
| COc1ccc(C(=O)NCC2(N(C)C)CCCCC2)cc1 | inactive: 3.82% |
| C=CCN1CCN(CCOC(=O)C(O)(c2ccccc2)c2ccccc2)CC1 | inactive: -1.12% |
| O=C(NCC1(N2CCCCC2)CCCCC1)c1cc(F)c(F)cc1Cl | inactive: 1.32% |
| Cc1ccccc1C(=O)NCC1(N2CCCCC2)CCCCC1 | inactive: -9.91% |
| CN(C)C1CCCC1OC(=O)C(O)(c1ccccc1)c1ccccc1 (stereo unspecified) | inactive: -0.82% |
| CN(C)c1ccc(C(=O)NCC2(N(C)C)CCCCC2)cc1 | inactive: -6.35% |
| O=C(NCC1(N2CCCCC2)CCCCC1)c1cccc(Cl)c1 | inactive: -8.43% |
| COc1cccc(C(=O)NCC2(N3CCCCC3)CCCCC2)c1 | inactive: -4.38% |
| COc1ccc(Cl)cc1C(=O)NCC1(N(C)C)CCCCC1 | inactive: -2.64% |
| COc1cc(C(=O)NCC2(N(C)C)CCCCC2)c([N+](=O)[O-])cc1OC | inactive: -2.73% |
| CN(C)C1(CNC(=O)c2ccc(Br)cc2)CCCCC1 | inactive: -7.06% |
| CN(C)c1cccc(C(=O)NCC2(N(C)C)CCCCC2)c1 | inactive: 7.24% |
| CC(C)Oc1ccc(C(=O)NCC2(N(C)C)CCCCC2)cc1 | inactive: -0.52% |
| O=C(OCCN1CCCC1)C(O)(c1ccccc1)c1ccccc1 | inactive: 4.51% |
| COc1ccc(Br)c(C(=O)NCC2(N3CCCCC3)CCCCC2)c1 | inactive: 0.26% |
| C=C(C)C#CC(O)(C(=O)OC1CCN(C)CC1)c1ccccc1 (stereo unspecified) | inactive: -5.57% |
| O=C(OC1CN2CCC1CC2)C(CO)(c1ccccc1)c1ccccc1 (stereo unspecified) | inactive: -1.47% |
